Assay results as given in EP2929785A1, “A PLA inhibitor for inhibition of fat absorption” (PAT GmbH, priority 2014, dated 2015).

Experiments:
cytosolic LPC = experiment: Cytosolic LPC concentration in HepG2 cells; format: cell-based, human; conditions: read-out: suppression of cytosolic LPC (IC50); 30 min treatment (Fig. 7)
HepG2 cells = experiment: Fatty acid ([3H]oleate:albumin) influx in HepG2 cells; format: cell-based, human

## CCCCC/C=C\C/C=C\C/C=C\C/C=C\CCCCOP(=O)(F)OC (stereo not shown)
Cytosolic LPC
  IC50: 62 µM
HepG2 cells; pretreatment UDCA-LPE 100 µM, 1 h or MAFP 150 µM, 1 h, control 61.80
  Vmax of [3H]oleate influx: 26.38 nmol/mg protein/min
HepG2 cells; read-out: Km of [3H]oleate influx, pretreatment UDCA-LPE 100 µM, 1 h or MAFP 150 µM, 1 h
  Km: 0.303 µM
HepG2 cells; read-out: inhibition of fatty acid influx (IC50), 1-h treatment with increasing concentrations (Fig. 2A)
  IC50: 56 µM
